Measured values as given in patent US8968784B2, “Method for preparing hydro/organo gelators from disaccharide sugars by biocatalysis and their use in enzyme-triggered drug delivery” (Research Foundation of the City University of New York, priority 2006, dated 2015).

Assay: Gelation ability in water and organic solvents (inverted tube, visual)
Assay type: physicochemical
Conditions: ten solvents tested (water, polar and nonpolar organic solvents)
Method: Typically, a gelator (0.01-2 mg) in a required solvent (0.1-1 mL) was heated until the solid was completely dissolved. The resulting solution was slowly allowed to cool to room temperature and gelation was visually observed. […] All gels obtained were thermally reversible. Above their gelation temperature, the gels dissolved in water but could be returned to their original gel state upon cooling.
Typically, the gelator (0.01-2 mg) and required solvent (0.1-1 mL) were placed into a 2 mL scintillation vial, which was then sealed with a screw cap. The vial was heated and shook until the solid was completely dissolved. The solution was set aside and allowed to cool to room temperature. Gelation was considered to have occurred when no gravitational flow in the inverted tube was observed.

Which “number of solvents gelled” value does the source give for Amygdalin Butyrate [derivative 1] here?
The value was “two solvents out of ten”.
